From ChEMBL document CHEMBL2203214, “Polyether ionophores-promising bioactive molecules for cancer therapy” (Bioorg Med Chem Lett, 2012)

Tested on: MDR
Test: Inhibition of MDR in multidrug-resistant human KB cells assessed as increase of doxorubicin accumulation after 1 hr relative to control

CC[C@@]1([C@@H]2O[C@@H]([C@H]3O[C@@](O)(CO)[C@H](C)C[C@@H]3C)C[C@@H]2C)CC[C@H]([C@]2(C)CC[C@]3(C[C@H](O)[C@@H](C)[C@@H]([C@@H](C)[C@@H](OC)[C@H](C)C(=O)O)O3)O2)O1 [MONENSIN] showed a fold change (FC) of 2.
